# Experimental data published in PubChem BioAssay AID588579 (National Center for Advancing Translational Sciences (NCATS), 2011).
# Chains of the proteins cited; added tags and fusions are not shown.
# UniProt Q9UBT6, whole entry: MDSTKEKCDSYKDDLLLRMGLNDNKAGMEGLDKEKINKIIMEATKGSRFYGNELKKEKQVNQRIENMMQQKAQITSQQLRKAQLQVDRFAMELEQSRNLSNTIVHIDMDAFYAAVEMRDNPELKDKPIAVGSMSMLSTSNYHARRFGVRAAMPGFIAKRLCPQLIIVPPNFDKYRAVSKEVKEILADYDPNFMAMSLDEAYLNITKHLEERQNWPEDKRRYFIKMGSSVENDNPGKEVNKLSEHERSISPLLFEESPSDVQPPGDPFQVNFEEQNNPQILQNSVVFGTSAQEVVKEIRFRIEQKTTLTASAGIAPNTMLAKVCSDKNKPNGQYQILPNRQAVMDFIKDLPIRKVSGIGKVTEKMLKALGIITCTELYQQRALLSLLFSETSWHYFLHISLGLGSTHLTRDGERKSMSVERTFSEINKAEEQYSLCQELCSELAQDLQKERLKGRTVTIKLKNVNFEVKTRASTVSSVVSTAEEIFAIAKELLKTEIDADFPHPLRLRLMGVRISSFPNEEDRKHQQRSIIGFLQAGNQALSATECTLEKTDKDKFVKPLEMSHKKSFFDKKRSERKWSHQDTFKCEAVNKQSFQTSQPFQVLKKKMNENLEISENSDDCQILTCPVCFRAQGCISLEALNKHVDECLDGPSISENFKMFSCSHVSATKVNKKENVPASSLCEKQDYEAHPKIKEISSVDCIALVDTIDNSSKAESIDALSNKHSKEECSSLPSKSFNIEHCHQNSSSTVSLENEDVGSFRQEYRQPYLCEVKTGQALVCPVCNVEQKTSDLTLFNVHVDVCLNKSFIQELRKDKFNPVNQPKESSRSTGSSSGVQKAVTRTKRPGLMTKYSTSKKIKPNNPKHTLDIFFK
# The list shows a part of the results, in another mix than the full data. Records with an inconclusive call do not appear. Some salts and complexes are drawn in separate pieces, as the source files them; their charges need not balance. Calls of active or inactive are those of the source. The call rests on the fitted dose curve; in most records, active means well fitted inhibition curve with a large enough effect; inconclusive means small, poorly fitted or top-dose-only effect, or another doubt; inactive means no such curve, though single readings can be large or run the other way.
# Target: DNA polymerase kappa (Homo sapiens) (UniProt Q9UBT6)
# Test: qHTS for Inhibitors of Polymerase Kappa
# Details: purified Pol kappa, fluorescent DNA synthesis assay, 10 min; at 107 µM (top of the series)
# Experimental: The processing and repair of DNA interstrand crosslinks (ICL) in eukaryotic cells are extremely complex, potentially involving multiple DNA repair and damage tolerance pathways, including homologous recombination, nucleotide excision repair, translesion synthesis (TLS), and cell cycle checkpoints.
# To that end, in a collaboration between the Oregon Health & Science University and the NIH Chemical Genomics Center a 1536-well high-throughput screen was developed. This fluorescent screen was assayed against the NIH Molecular Libraries Small Molecule Repository (MLSMR) to discover inhibitors of Pol Kappa.
# NIH Chemical Genomics Center [NCGC]
# NIH Molecular Libraries Probe Centers Network [MLPCN]
# Assay Submitter (PI): Stephen Lloyd, Oregon Health & Science University
# Three microliters of reagents (buffer in column 3 and 4 as negative control and 10 nM Pol kappa in columns 1, 2, and 5-48) were dispensed into a 1536-well black solid-bottom plate. Compounds (23 nL) were transferred via Kalypsys pin tool equipped with 1536-pin array. The plates were then incubated for 15 min at room temperature, and 1 uL substrate (50 nM final concentration) were then added to start the reaction and kinetically read twice at 0 min and 10 min on the Viewlux reader
# On the % scale 0 is the no-effect control and ±100 the full control effect.
row,Compound,"activity, negative = inhibition"
1,ClCCN(CCCl)c1ccccc1,inactive: -14.4%
2,ClCCN(CCCl)c1ccc(C=C2C=CC=C2)cc1,inactive: -20.9%
3,Cn1c(=O)[nH]cc(N(CCCl)CCCl)c1=O,inactive: -3.39%
4,Cc1cc(N(CCCl)CCCl)ccc1C=O,inactive: -3.8%
5,CCOC(=O)C(CC)C1=NC(C)(C)Cc2ccccc21.O=[N+]([O-])c1cc([N+](=O)[O-])c(O)c([N+](=O)[O-])c1 (stereo not drawn),inactive: -12.4%
6,O=C(O)c1cccc(Nc2c([N+](=O)[O-])cc([N+](=O)[O-])cc2[N+](=O)[O-])c1,inactive: -24.8%
7,N/C(=N\O)c1c(N)no[n+]1[O-],inactive: -9.92%
8,O=Cc1ccc(N(CCCl)CCCl)cc1,inactive: 4.72%
9,COc1ccc2c(c1O)-c1c(O)c(OC)cc3c1[C@H](C2)[N+](C)(C)CC3.O=[N+]([O-])c1cc([N+](=O)[O-])c([O-])c([N+](=O)[O-])c1[O-],inactive: -30.1%
10,O=C(OC1CN2CCC1CC2)c1ccc([N+](=O)[O-])cc1 (stereo not drawn),inactive: 4.56%
11,O=[N+]([O-])c1cc([N+](=O)[O-])c(OC2CCCCC2O)c([N+](=O)[O-])c1 (stereo not drawn),inactive: -3.94%
12,O=[N+]([O-])c1cc([N+](=O)[O-])c(NCC2CCS(=O)(=O)C2)c([N+](=O)[O-])c1 (stereo not drawn),inactive: -3.16%
13,O=P1(N(CCCl)CCCl)SCCCS1,inactive: -24.1%
